Assay [1] deals with cloned human δ opioid receptor (Homo sapiens, UniProt P41143). Description: biochemical.
For assay [2], the target named is cloned human κ opioid receptor (Homo sapiens, UniProt P41145). Description: biochemical. The class given is biochemical.
The target of assay [3] is cloned human μ opioid receptor (Homo sapiens, UniProt P35372). Description: biochemical.
[4] abbreviates: read-out: Ke δ, DPDPE, inhibition of agonist-stimulated [35S]GTPγS binding, mean ±SEM of at least three experiments.
Where [5] appears, read: read-out: Ke κ, U69,593, inhibition of agonist-stimulated [35S]GTPγS binding, mean ±SEM of at least three experiments.

Sequences of proteins named here, by UniProt entry; tags and fusion partners are left off. A change or cut given only in a name is not applied to a line headed by its entry.
UniProt P41145: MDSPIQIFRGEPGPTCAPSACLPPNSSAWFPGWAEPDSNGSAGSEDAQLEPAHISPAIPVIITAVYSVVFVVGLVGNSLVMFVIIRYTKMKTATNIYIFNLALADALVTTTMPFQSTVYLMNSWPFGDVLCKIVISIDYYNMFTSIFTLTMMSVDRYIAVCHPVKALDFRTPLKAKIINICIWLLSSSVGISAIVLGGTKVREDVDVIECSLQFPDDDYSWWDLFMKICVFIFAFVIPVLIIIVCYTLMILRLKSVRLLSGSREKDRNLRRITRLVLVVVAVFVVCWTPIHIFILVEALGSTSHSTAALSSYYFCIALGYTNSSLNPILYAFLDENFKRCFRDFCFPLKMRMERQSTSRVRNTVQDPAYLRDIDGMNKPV
UniProt P35372, whole entry: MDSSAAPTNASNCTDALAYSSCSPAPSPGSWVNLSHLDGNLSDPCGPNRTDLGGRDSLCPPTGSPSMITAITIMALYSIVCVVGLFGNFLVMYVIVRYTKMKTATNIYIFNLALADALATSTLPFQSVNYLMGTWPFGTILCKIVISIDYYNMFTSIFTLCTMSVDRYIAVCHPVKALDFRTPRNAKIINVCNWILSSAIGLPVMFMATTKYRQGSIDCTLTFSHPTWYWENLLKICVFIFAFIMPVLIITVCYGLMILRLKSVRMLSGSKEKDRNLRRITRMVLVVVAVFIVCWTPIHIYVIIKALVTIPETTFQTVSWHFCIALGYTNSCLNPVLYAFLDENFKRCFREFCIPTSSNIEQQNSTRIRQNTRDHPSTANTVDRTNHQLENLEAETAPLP

SMILES strings stand for the structures. Like-named read-outs stand apart in the source and are kept apart here.

`CC(C)[C@@H](CN1CC[C@@](C)(c2ccccc2)[C@@H](C)C1)NC(=O)[C@H]1Cc2ccc(O)cc2CN1` [Compound 3a, reference compound]: the values for the Kb in assay [1] (setting [4]) and in assay [2] (setting [5]) were 442 nM and 0.024 nM, respectively. Also, the δ/κ in assay [2] (ratio of Ke values, selectivity for κ relative to δ) is recorded as 18,400.
Consider `CC(C)[C@@H](CN1CC[C@@](C)(c2cccc(F)c2)[C@@H](C)C1)NC(=O)[C@H]1Cc2ccc(O)cc2CN1` [Compound 3b, reference compound], for which the results for the Kb in assay [1] (setting [4]) and in assay [2] (setting [5]) were 249 nM and 0.01 nM, respectively.
As to `CC(C)[C@@H](CN1CCC(C)(c2cccc(O)c2)CC1)NC(=O)[C@H]1Cc2ccc(O)cc2CN1` [Compound 4a, (3R)-7-Hydoxy-N-[(1S)-1-{[4-(3-hydroxyphenyl)-4-methylpiperidin-1-yl]methyl}-2-methylpropyl]-1,2,3,4-tetrahydroisoquinoline-3-carboxamide], the “functional profile in the [35S]GTPγS test” value in the assay with opioid receptors is given as “pure opioid receptor antagonist”. In addition, the “agonist activity in the [35S]GTPγS binding assay” value in the assay on opioid receptors (at 10 μM) is “no agonist activity”.
`CC(C)[C@@H](CN1CCC(C)(c2cccc(F)c2)CC1)NC(=O)[C@H]1Cc2ccc(O)cc2CN1` [Compound 4b, (3R)-N-[(1S)-1-{[4-(3-fluorophenyl)-4-methylpiperidin-1-yl]methyl}-2-methylpropyl]-7-hydroxy-1,2,3,4-tetrahydroisoquinoline-3-carboxamide]: the Kb in assay [3] came out at 38 ± 6.4 nM; in assay [1], 1480 ± 350 nM; in assay [2] it was 0.18 ± 0.04 nM. The “fold less potent than 3b as a κ opioid antagonist” value in assay [2] (ratio of κ Ke values vs 3b) is given as 18 fold.
With `CC(C)[C@@H](CN1CCC(c2ccccc2)CC1)NC(=O)[C@H]1Cc2ccc(O)cc2CN1` [Compound 4e, (3R)-7-Hydroxy-N-{(1S)-2-methyl-1-[(4-phenylpiperidin-1-yl]methyl]propyl}-1,2,3,4-tetrahydroisoquinoline-3-carboxamide], in assay [3], the Kb is 3.96 ± 1.1 nM.
As to `CC(C)[C@@H](CN1CCC(c2cccc(F)c2)CC1)NC(=O)[C@H]1Cc2ccc(O)cc2CN1` [Compound 4f, (3R)-N-[(1S)-1-{[4-(3-Fluorophenyl)piperidin-1-yl]methyl}-2-methylpropyl]-7-hydroxy-1,2,3,4-tetrahydroisoquinoline-3-carboxamide], the Kb in assay [3] was 3.55 ± 1.1 nM; in assay [1], 128 ± 36 nM; in assay [2] it was 0.023 ± 0.01 nM.
